# Measured affinities in a library of Ab-14 heavy chain variants

Reference: Engelhart et al. 2022, doi:10.1038/s41597-022-01779-4. File: FLAb, binding data.

Target peptide (SARS-CoV-2 spike, HR2 region): PDVDLGDISGINAS

Parent: Ab-14, a human scFv built as VH, three GGGGS repeats, VL. Only the CDRs of the heavy chain vary.
VH: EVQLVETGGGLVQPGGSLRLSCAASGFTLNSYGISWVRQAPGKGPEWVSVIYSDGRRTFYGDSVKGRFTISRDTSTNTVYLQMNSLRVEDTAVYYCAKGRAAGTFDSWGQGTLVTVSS
VL: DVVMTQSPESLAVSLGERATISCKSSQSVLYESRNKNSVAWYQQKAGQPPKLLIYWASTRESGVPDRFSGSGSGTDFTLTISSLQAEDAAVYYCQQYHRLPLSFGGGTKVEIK

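Variants in AAYL49 differ from the parent at up to three CDR positions; double and triple changes were sampled at random. The assay is AlphaSeq: two haploid yeast populations carry antibody and antigen on their surface. Binding brings cells together so that they mate, and sequencing counts the barcode pairs among the diploids. Scores were corrected for input abundance and mapped to Kd with protein pairs of known affinity run in the same pool. There are three technical replicates.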

Positions count from residue 1 of the parent VH; G26Y puts Y in place of G. The read-out is the apparent dissociation constant on a log10 scale (nM): the lower, the stronger. Replicates are averaged; those with no signal do not enter the mean. A pair that was not seen in that replicate is written "n.d."; this usually means weak binding, but a binder can also be missed. As a blank, each scFv also met three strains without target: over library AAYL49, 15% of these pairings were detected, typically at 4.06 and seldom below 2.83. Also given: how often the same scFv was detected with the empty control strains, with their mean in brackets.

changes | log10 Kd, replicates | mean, log10 nM | signal with controls
G26Y/N30C/D106K | n.d. / n.d. / n.d. | n.d. | 0 of 9
S31L/Y52F/D54V | 3.86 / n.d. / n.d. | 3.86 | 2 of 9 (3.80)
S31D/F105Q/D106S | n.d. / n.d. / n.d. | n.d. | 0 of 9
V50S/R56H/D106R | n.d. / 2.97 / n.d. | 2.97 | 5 of 9 (3.93)
D54Q/G61P/A102W | n.d. / n.d. / n.d. | n.d. | 0 of 9
T28C/A101I/F105S | 3.79 / 3.78 / n.d. | 3.79 | 4 of 9 (4.71)
R57F/R100A | n.d. / 2.76 / n.d. | 2.76 | 4 of 9 (3.39)
Y32R/R56A/V64G | 3.06 / 2.41 / n.d. | 2.73 | 1 of 9 (4.12)
R57C/V64L | n.d. / n.d. / n.d. | n.d. | 3 of 9 (4.48)
D54V/Y60W/D106P | n.d. / n.d. / n.d. | n.d. | 1 of 9 (4.25)
I34T/K65C/G99N | n.d. / 4.86 / n.d. | 4.86 | 1 of 9 (3.43)
G26R/N30F/S53L | 4.37 / n.d. / 3.76 | 4.06 | 0 of 9
S31H/R56M/D62N | 1.10 / 1.30 / 1.42 | 1.27 | 3 of 9 (3.54)
D54H/G55S/F59Y | n.d. / n.d. / n.d. | n.d. | 0 of 9
I34G/F59T/S107F | n.d. / n.d. / 2.71 | 2.71 | 0 of 9
G55F/G61Q/T104F | 4.30 / n.d. / n.d. | 4.30 | 3 of 9 (4.33)
G33F/F105N | n.d. / n.d. / n.d. | n.d. | 2 of 9 (3.40)
G33P/Y60C/D62L | 4.48 / 3.72 / n.d. | 4.10 | 1 of 9 (3.48)
S53H/G103F/F105T | n.d. / n.d. / n.d. | n.d. | 0 of 9
V50M/T58S/G61C | 5.67 / n.d. / 5.60 | 5.64 | 1 of 9 (3.02)
F27Y/D54S/D106H | 5.23 / 4.31 / 5.38 | 4.97 | 6 of 9 (4.24)
G26W/I34W/T104D | n.d. / 4.56 / 4.42 | 4.49 | 1 of 9 (3.66)
R57P/F105A/S107F | n.d. / n.d. / n.d. | n.d. | 0 of 9
N30T/V50S/R57C | 2.70 / 2.08 / 2.20 | 2.33 | 3 of 9 (3.61)
G26T/Y60R/K65C | n.d. / n.d. / n.d. | n.d. | 2 of 9 (3.24)
T28W/T58R/G103P | 3.96 / 3.51 / 4.66 | 4.04 | 3 of 9 (3.87)
D62S/V64G | 2.63 / 2.79 / n.d. | 2.71 | 2 of 9 (4.24)
G33I/D54V/R100I | n.d. / 4.48 / n.d. | 4.48 | 1 of 9 (3.42)
D62M/T104V/S107Y | n.d. / 2.93 / n.d. | 2.93 | 0 of 9
F27G/T28C/G61C | 3.01 / n.d. / 3.60 | 3.30 | 3 of 9 (3.45)
Y52D/R56E/Y60L | n.d. / n.d. / n.d. | n.d. | 2 of 9 (4.43)
Y32T/Y60L | n.d. / 2.96 / n.d. | 2.96 | 5 of 9 (4.50)
R56C/Y60R/D62P | n.d. / n.d. / n.d. | n.d. | 0 of 9
I51W/K65S/A101D | n.d. / n.d. / n.d. | n.d. | 0 of 9
Y52P/V64L/F105Y | n.d. / n.d. / n.d. | n.d. | 1 of 9 (3.56)
N30Q/S53R/G99W | n.d. / n.d. / n.d. | n.d. | 0 of 9
N30E/R100Y/D106S | 0.50 / 0.82 / 0.58 | 0.63 | 1 of 9 (4.95)
D54Q/K65Y/D106A | n.d. / n.d. / n.d. | n.d. | 0 of 9
V50D/Y52I/R57H | 2.93 / n.d. / n.d. | 2.93 | 0 of 9
S31F/R57N/G103K | n.d. / n.d. / n.d. | n.d. | 2 of 9 (3.38)
R100T/F105S/S107A | 5.35 / 4.43 / 5.15 | 4.98 | 7 of 9 (4.45)
D54M/S63Y/R100C | n.d. / n.d. / n.d. | n.d. | 0 of 9
I51C/S63A/V64Y | 6.80 / 4.23 / 4.30 | 5.11 | 4 of 9 (5.17)
N30I/D54T | 5.11 / n.d. / n.d. | 5.11 | 3 of 9 (4.45)
I34Y/T58L/R100I | 3.99 / 5.16 / 4.52 | 4.56 | 4 of 9 (4.19)
F27S/S63K | 1.00 / 1.27 / 1.14 | 1.14 | 0 of 9
F27C/G55D/F59P | n.d. / n.d. / n.d. | n.d. | 2 of 9 (4.66)